The values that follow come from US6846953B1, “Aromatic amides” (Warner Lambert Company, priority 1999, dated 2005).

Amino acid sequences for entries named in this document (tags omitted).
UniProt O77773, entry or part of it limits assumed: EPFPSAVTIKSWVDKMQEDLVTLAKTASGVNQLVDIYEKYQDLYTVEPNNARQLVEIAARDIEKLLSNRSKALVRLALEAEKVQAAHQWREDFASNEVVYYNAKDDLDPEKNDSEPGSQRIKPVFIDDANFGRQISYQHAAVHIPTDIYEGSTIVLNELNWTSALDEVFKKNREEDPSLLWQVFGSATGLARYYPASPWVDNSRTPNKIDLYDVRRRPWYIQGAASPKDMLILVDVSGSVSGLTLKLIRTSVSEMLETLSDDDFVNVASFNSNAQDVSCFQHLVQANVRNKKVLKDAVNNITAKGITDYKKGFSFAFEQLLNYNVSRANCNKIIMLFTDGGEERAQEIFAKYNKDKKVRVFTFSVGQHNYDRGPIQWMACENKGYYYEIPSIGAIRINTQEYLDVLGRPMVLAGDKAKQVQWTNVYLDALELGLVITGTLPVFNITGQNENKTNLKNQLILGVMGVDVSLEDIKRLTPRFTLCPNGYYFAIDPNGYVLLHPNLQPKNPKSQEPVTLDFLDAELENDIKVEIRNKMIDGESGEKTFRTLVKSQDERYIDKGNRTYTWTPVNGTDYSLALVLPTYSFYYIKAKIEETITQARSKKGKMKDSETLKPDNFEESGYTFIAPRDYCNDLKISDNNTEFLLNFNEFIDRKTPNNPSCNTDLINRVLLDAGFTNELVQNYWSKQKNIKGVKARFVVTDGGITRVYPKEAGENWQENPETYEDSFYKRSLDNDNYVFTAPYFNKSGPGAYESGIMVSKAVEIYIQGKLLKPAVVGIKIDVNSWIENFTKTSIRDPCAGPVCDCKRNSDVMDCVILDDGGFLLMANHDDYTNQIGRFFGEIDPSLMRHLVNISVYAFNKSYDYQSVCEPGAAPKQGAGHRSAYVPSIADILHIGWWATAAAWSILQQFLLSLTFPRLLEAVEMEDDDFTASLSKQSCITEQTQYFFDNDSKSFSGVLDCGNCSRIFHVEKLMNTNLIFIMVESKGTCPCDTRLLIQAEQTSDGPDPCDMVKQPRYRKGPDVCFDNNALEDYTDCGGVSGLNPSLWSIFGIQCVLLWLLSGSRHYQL

Some compounds may have been tested in ways that are not shown here.

In the test the target is α2δ submit of the calcium channel found in animal brain tissue (Sus scrofa, UniProt O77773). Kind of test: in vitro α2δ binding assay (Gee et al.). The settings on record: read-out: IC50 (μM) at α2δ binding site.

A word on the IC50: it is the concentration needed to halve the response being measured.

For the substance “N-Propionyl, N-(2-Diethylaminoethyl)-3-bromobenzylamine”, the IC50 is 4.81 µM.
